# Results published in publication PMC4369446 (2015).
# T1: MART1 (wild-type peptide) peptide on HLA-A*02:01 (human)
# T1 peptide: AAGIGILTV
# B1: SIG35α / TRBV27 Cl.1599 (TCR)
# alpha TRAV12-2 J35 CDR3: CAVSIGFGNVL
# beta TRBV27 TRBJ1-1 CDR3: CASSFLGAMAEAFF
# B2: SIG35α / TRBV27 Cl.523 (TCR)
# alpha TRAV12-2 J35 CDR3: CAVSIGFGNVL
# beta TRBV27 TRBJ2-7 CDR3: CASGSYEQYF
# B3: SIG35α / TRBV27 Cl.758 (TCR)
# alpha TRAV12-2 J35 CDR3: CAVSIGFGNVL
# beta TRBV27 TRBJ2-2 CDR3: CASSPRLAGDGELFF
# B4: SIG35α / TRBV27 Cl.1593 (TCR)
# alpha TRAV12-2 J35 CDR3: CAVSIGFGNVL
# beta TRBV27 TRBJ1-5 CDR3: CASGNNQPQHF
# B5: SIG35α / TRBV27 Cl.794 (TCR)
# alpha TRAV12-2 J35 CDR3: CAVSIGFGNVL
# beta TRBV27 TRBJ1-2 CDR3: CASSLLGDYGYTF
# B6: SIG35α / TRBV27 Cl.788 (TCR)
# alpha TRAV12-2 J35 CDR3: CAVSIGFGNVL
# beta TRBV27 TRBJ2-7 CDR3: CASGPSYEQYF
# B7: SIG35α / TRBV27 Cl.1574 (TCR)
# alpha TRAV12-2 J35 CDR3: CAVSIGFGNVL
# beta TRBV27 TRBJ1-1 CDR3: CASSPWERINTEAFF
# B8: SIG35α / TRBV27 Cl.1086 (TCR)
# alpha TRAV12-2 J35 CDR3: CAVSIGFGNVL
# beta TRBV27 TRBJ1-2 CDR3: CASSLHGPGGYTF
# B9: SIG35α / TRBV27 Cl.1606 (TCR)
# alpha TRAV12-2 J35 CDR3: CAVSIGFGNVL
# beta TRBV27 TRBJ2-7 CDR3: CASSLLGSYEQYF
# B10: SIG35α / TRBV27 Cl.413 (TCR)
# alpha TRAV12-2 J35 CDR3: CAVSIGFGNVL
# beta TRBV27 TRBJ1-4 CDR3: CASSVFGGDMGEKLFF
# Molecular target: T1, MART1 (wild-type peptide) peptide on …
# Assay: graded A2/MART1 multimer
row,EC50 of multimer [µg/mL],Binder
1,0.02,B1
2,0.3,B2
3,0.06,B3
4,0.006,B4
5,0.02,B5
6,0.01,B6
7,0.03,B7
8,0.01,B8
9,0.006,B9

# Molecular target: T1, MART1 (wild-type peptide) peptide on …
# Assay: IL-2 ELISPOT
row,EC50 of peptide [nM],Binder
1,1600,B3
2,440,B4
3,120,B5
4,2900,B6
5,350,B7
6,2400,B8
7,160,B9

# Molecular target: T1, MART1 (wild-type peptide) peptide on …
# Assay: graded A2/MART1 multimer
# Remark: another data set of the same source
row,EC50 of multimer [µg/mL],Binder
1,0.06,B1
2,2.7,B3
3,0.01,B4
4,0.06,B5
5,0.05,B6
6,0.1,B7
7,0.04,B8
8,0.01,B9

# Molecular target: T1, MART1 (wild-type peptide) peptide on …
# Assay: IL-2 ELISPOT
# Remark: another data set of the same source
row,EC50 of peptide [nM],Binder
1,160,B1
2,2700,B2
3,460,B3
4,160,B5
5,570,B6
6,150,B7
7,120,B9
8,10000,B10
